Several values for one entry are separate records, joined by “and”; a condition that tells them apart may be missing. Identical values can stand only once. This is a selection; strong and weak results do not stand in their true shares. Activity calls are given as the source filed them.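 How the source made its calls: active means percent inhibition above 40 after rounding to a whole number; inactive means the rest.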

Amino acid sequences for entries named in this document (tags omitted). A change or cut given only in a name is not applied to a line headed by its entry.
UniProt P43116: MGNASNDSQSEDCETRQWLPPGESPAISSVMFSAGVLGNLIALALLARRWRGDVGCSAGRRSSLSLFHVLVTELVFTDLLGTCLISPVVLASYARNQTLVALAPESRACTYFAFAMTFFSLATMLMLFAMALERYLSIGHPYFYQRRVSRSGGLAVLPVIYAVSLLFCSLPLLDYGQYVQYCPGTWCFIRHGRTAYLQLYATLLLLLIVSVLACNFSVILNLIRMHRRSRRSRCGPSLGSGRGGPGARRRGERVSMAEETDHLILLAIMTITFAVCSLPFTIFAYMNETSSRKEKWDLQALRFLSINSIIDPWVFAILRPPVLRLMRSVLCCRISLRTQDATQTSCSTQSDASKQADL

This assay addresses Prostaglandin E2 receptor EP2 subtype (Homo sapiens) (UniProt P43116). Kind of assay: human EP2 receptor antagonists, primary screen, TR-FRET cAMP, C6 glioma cells (AID 1422).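 Further: rat C6 glioma host cells with rolipram phosphodiesterase inhibitor present; the protocol text gives 20 µM as final concentration.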 The following applies: C6 glioma cells expressing human EP2, cAMP TR-FRET; at 25 µM; active compounds read high; cells stimulated with saturating PGE2. In general terms: Time-resolved FRET reads energy transfer from a long-lived donor to a nearby acceptor.
As a reminder, the inhibition is the relative decrease from the control value, in per cent. For the compound `C(Cc1nn[nH]n1)c1nn[nH]n1`, the inhibition was inactive: 10.4%. The result for `CCN(N=Nc1nonc1N)c1nonc1N` reads inactive: 11.8%. The result for `Nc1cccc2ccc([As](=O)(O)O)cc12` reads inactive: 5.9%; that for `[N-]=[N+]=NCC(O)CN=[N+]=[N-]` (stereo not drawn), inactive: 9.25%; that for `CN(C(=O)Cc1ccc(Cl)c(Cl)c1)[C@H]1CCCC[C@@H]1N1CCCC1`, inactive: 14.3% and inactive: 21.7%.

For `Cc1ccc(NP(=O)(Oc2ccccc2F)Oc2ccccc2F)nc1`, the inhibition was inactive: 12.3%.

Turning to `CCOP(=O)(Nc1ccccc1)OCC`, the inhibition is inactive: 6.7%. For `Cc1cc(SC(NC(=O)c2ccc(F)cc2)C(Cl)(Cl)Cl)ncn1` (stereo not drawn) the value was inactive: 6.18%; for `O=C(O)c1ccccc1[As](=O)(O)O`, inactive: 8.24%.

For `CC(=O)Nc1ccc([As](=O)(O)O)cc1`, the inhibition was inactive: 9.56%. The result for `O=P(Nc1nc2ccc(Cl)cc2s1)(c1ccccc1)c1ccccc1` reads inactive: 6.48%; that for `NCC[C@@H](N)CSP(=O)(O)O`, inactive: 6.32%. `CC(C)CC(=O)NC(Sc1ccc(Cl)cc1)C(Cl)(Cl)Cl` (stereo not drawn): the inhibition is inactive: -1.82%. For `Nc1cc(N)c2nonc2c1[N+](=O)[O-]` the value was inactive: 4.26%; for `Cc1c2non([O-])c-2c(C)[n+](=O)[n+]1[O-]`, inactive: 8.05%; for `O=C(NC(Sc1ccncn1)C(Cl)(Cl)Cl)c1ccccc1` (stereo not drawn), inactive: 12.8%. The result for `Oc1ccccc1CNc1ccccn1` reads inactive: 5.09%; that for `Cc1ccc(OP(=O)(Nc2nccs2)Oc2ccc(C)cc2)cc1`, inactive: 8.26%; that for `O=[N+]([O-])c1ccc(C[As](=O)(O)O)cc1`, inactive: 14.3%.

`CCOc1ccc(/C=C2/C(=O)NC(=O)N(Cc3ccco3)C2=O)cc1`: the inhibition is inactive: 8.08%.

As for `COc1ccccc1OP(=O)(Nc1ccc(C)cn1)Oc1ccccc1OC`, the inhibition was inactive: 8.26%. On to `Clc1ccc(Cl)c(NC2=NCC(CBr)S2)c1` (stereo not drawn), for which the inhibition is inactive: 3.7%.

As to `CN1CCCC(OC(=O)C(c2ccccc2)c2ccccc2)C1` (stereo not drawn), the inhibition is inactive: 6.74%. The result for `NC(=O)c1cc([N+](=O)[O-])cc([N+](=O)[O-])c1N` reads inactive: 9.24%; that for `Cc1ccc(N/C(=N/P(=O)(N2CCOCC2)N2CCOCC2)N2CCOCC2)cc1`, inactive: 5.58%; that for `CN(C)C(=O)OCCc1n(C)cc[n+]1C`, inactive: 2.12%. The result for `CC(C)=N/N=C(\N)N[N+](=O)[O-]` reads inactive: 3.31%; that for `CC1CCN(C(=O)Oc2c(Cl)cc(Cl)c3cccnc23)CC1`, inactive: 0.76%; that for `O=C(CO)Nc1ccc([As](=O)(O)O)cc1`, inactive: 7.09%.

For the compound `C[N+]1=C2C=CC=CC=C2SC12C([N+](=O)[O-])=CC([N+](=O)[O-])=C[C-]2[N+](=O)[O-]` (stereo not drawn), the inhibition was inactive: 7.82%.

As to `Nc1ccc([As](=O)(O)c2ccc(N)cc2)cc1`, the inhibition is inactive: 10.7%. As to `CCN(/C(=N/P(=O)(N1CCOCC1)N1CCOCC1)N1CCOCC1)c1ccc(OC)cc1`, the inhibition was inactive: 6.36%. The result for `CC(=O)N1C2C3N(C(C)=O)C1C1N(C(C)=O)C(C(N1C(C)=O)N3C(C)=O)N2C(C)=O` reads inactive: 12%; that for `O=[N+]([O-])c1cccc2n[nH]nc12`, inactive: 13%. For `O=[N+]([O-])c1cc([N+](=O)[O-])c(CCNc2ccccc2)c([N+](=O)[O-])c1` the value was inactive: 3.74%; for `CCc1nc2c(n1)c1c(non1O)c1c2no[n+]1[O-]`, inactive: 14.6%. The result for `Cc1ccc(NP(=O)(Oc2ccccc2)Oc2ccccc2)nc1` reads inactive: 2.75%; that for `COc1ccc(C2=NCC(CBr)S2)cc1` (stereo not drawn), inactive: 2.54%; that for `O=[N+]([O-])c1cccc(NC2=NCC(CBr)S2)c1` (stereo not drawn), inactive: 3.24%. As to `O=C(O)CNc1ccc([As](=O)(O)O)cc1`, the inhibition was inactive: 1.97%. Turning to `CC(C)(C)C(=O)NC(Sc1ccncn1)C(Cl)(Cl)Cl` (stereo not drawn), the inhibition is inactive: 8.37%. The result for `O=[N+]([O-])c1ncn(CCn2ncnc2[N+](=O)[O-])n1` reads inactive: 1.53%. The result for `O=C(Nc1cc([As](=O)(O)O)ccc1O)c1ccccc1` reads inactive: 16.8%. For the compound `Nc1ccc([As](=O)(O)c2ccc([N+](=O)[O-])cc2)cc1`, the inhibition was inactive: 7.72%. Consider `C(Cc1nn[nH]n1)Cc1nn[nH]n1`, for which the inhibition is inactive: 13.9%. On to `O=C(OC1CN2CCC1CC2)c1cccc(Cl)c1` (stereo not drawn), for which the inhibition is inactive: 5.79%. For `CC(=O)NC(SC(=S)N(C)C)C(Cl)(Cl)Cl` (stereo not drawn) the value was inactive: 3.98%; for `O=[N+]([O-])c1ncn(CCn2cnc([N+](=O)[O-])n2)n1`, inactive: 7.11%. For `O=[As](O)(c1ccccc1)c1ccc(O)cc1` the value was inactive: 6.89%.

With `C[C@H]1OP(=O)(Oc2ccccc2)[C@H](O)[C@H](O)[C@H]1N=[N+]=[N-]` (stereo partly drawn), the inhibition was inactive: 8.2%. For the compound `O=P(Nc1nc2ccccc2s1)(c1ccccc1)c1ccccc1`, the inhibition is inactive: 5.71%. For `[N-]=[N+]=Nc1ccc([As](=O)(O)O)cc1` the value was inactive: 6.55%; for `O=P(Nc1ccccn1)(c1ccc(Br)cc1)c1ccc(Br)cc1`, inactive: 9.62%; for `C[C@@H](O)COc1ccc([As](=O)(O)O)cc1N`, inactive: 13.2%. For `COc1ccc(/C=C2/C(=O)NC(=O)N(Cc3ccco3)C2=O)c(OC)c1` the value was inactive: 9.33%; for `CN1CCC[C@H](OC(=O)C(c2ccccc2)c2ccccc2)C1`, inactive: 9.85%. For `c1nnnn1CCn1cnnn1` the value was inactive: 19.9%. For `O=P(Nc1nccs1)(c1ccccc1)c1ccccc1`, the inhibition was inactive: 8.71%.

`CC(C)C(=O)NC(Sc1ccccc1)C(Cl)(Cl)Cl` (stereo not drawn): the inhibition was inactive: 1.95%. For `CC(=O)Nc1ccc(Oc2c([N+](=O)[O-])cc([N+](=O)[O-])cc2[N+](=O)[O-])cc1` the value was inactive: 4.6%. As to `CC(=O)Nc1ccc([As](=O)(O)O)c(O)c1`, the inhibition is inactive: 15%. For `C[C@@H]1C=CCP(=O)(Oc2ccccc2)O1` (stereo partly drawn) the value was inactive: 14.4%; for `C[C@H]1OP(=O)(Oc2ccccc2)C[C@@H]2O[C@@H]21` (stereo partly drawn), inactive: 14.3%.

Take `CC(C)(C)C(=O)NC(Sc1ccccc1)C(Cl)(Cl)Cl` (stereo not drawn): the inhibition was inactive: 1.44%. For `CCOc1ccc(C2=NCC(CBr)S2)cc1` (stereo not drawn) the value was inactive: 2.71%; for `O=P1(Nc2nc3ccc(Cl)cc3s2)COc2ccccc2O1` (stereo not drawn), inactive: 5.66%; for `CN(C)C(=O)Oc1noc2ccccc12`, inactive: 0.2%. The result for `O=c1c2cc([N+](=O)[O-])ccc2[nH]c2c([N+](=O)[O-])cc([N+](=O)[O-])cc12` reads inactive: 22.6%; that for `Cc1ccccc1OP(=O)(Nc1ccccn1)Oc1ccccc1C`, inactive: 5.91%. The result for `CC(=O)NC(SC(=S)N(CC(C)C)CC(C)C)C(Cl)(Cl)Cl` (stereo not drawn) reads inactive: 4.82%; that for `Cc1ccc(OP(=O)(Nc2ccccn2)Oc2ccc(C)cc2)cc1`, inactive: 2.9%.

Take `COC(=O)c1cc2c(s1)N=C(c1ccccc1)N(C)P2(=O)N1CCOCC1` (stereo not drawn): the inhibition was inactive: 5.97%. Consider `CCC(=O)N1C2C3N(C(=O)CC)C1C1N(C(=O)CC)C(C(N1C(=O)CC)N3C(=O)CC)N2C(=O)CC`, for which the inhibition is inactive: 12.1%.

`CN(C(=O)Cc1ccc(Cl)c(Cl)c1)[C@@H]1CCCC[C@@H]1N1CCCC1`: the inhibition is inactive: 14.4%.

Turning to `O=c1[nH]cc(S(=O)(=O)F)c(=O)[nH]1`, the inhibition was inactive: 16.1%.

For `O=C(NC1CCS(=O)(=O)C1)NP(=S)(Oc1ccccc1)Oc1ccccc1` (stereo not drawn), the inhibition is inactive: 5.42%. The result for `CCNC(=S)/N=C(\N)N[N+](=O)[O-]` reads inactive: 8.2%; that for `Cc1ccc(NP(=O)(Oc2cccc(C)c2)Oc2cccc(C)c2)nc1`, inactive: 3.77%; that for `CCOC(=O)NC(Sc1ccccc1)C(Cl)(Cl)Cl` (stereo not drawn), inactive: 2.91%.

For `c1ccc(-c2nn[nH]n2)c(-c2nn[nH]n2)c1`, the inhibition is inactive: 9.52%. For `CN(C(=O)Cc1ccc(Cl)c(Cl)c1)[C@H]1CC[C@@]2(CCCO2)C[C@@H]1N1CCCC1` the value was inactive: 14.1%. As for `O=[N+]([O-])c1ccc2c(c1)nnn2O`, the inhibition was inactive: 4.05%.

As for `CCOP1(=S)c2c(C)nn(CCC#N)c2N=C(c2ccc(F)cc2)N1C` (stereo not drawn), the inhibition was inactive: -1.66%.

Regarding `CN(C(=O)Cc1ccccc1)[C@@H]1CC[C@]2(CCCO2)C[C@H]1N1CCCC1`, the inhibition is inactive: 12.4% and inactive: 17.2%. As for `NC(=O)c1nsnc1NCCCl`, the inhibition was inactive: 5.79%.

As to `NC(=O)Nc1ccc([As](=O)(O)O)cc1`, the inhibition was inactive: 16.2%. The result for `O=C(O)COc1ccc([As](=O)(O)O)cc1[N+](=O)[O-]` reads inactive: 8.98%. Take `Nc1ccccc1[As](=O)(O)c1ccccc1`: the inhibition is inactive: 7.93%. For `O=[As](O)(O)c1ccc([As](=O)(O)O)cc1` the value was inactive: 7.02%; for `CS(=O)(=O)c1cc([N+](=O)[O-])c2no[n+]([O-])c2c1`, inactive: 17.3%. As for `O=P(Nc1nccs1)(c1ccccc1)c1nc2ccccc2s1` (stereo not drawn), the inhibition was inactive: 7.12%.

For the compound `O=P(Nc1nccs1)(Oc1ccccc1)Oc1ccccc1`, the inhibition was inactive: 7.77%.

On to `CCOP1(=S)c2c(C)nn(CCC#N)c2N=C(c2ccccc2F)N1C` (stereo not drawn), for which the inhibition was inactive: 9.25%. The result for `CCOP(=O)(Nc1cccc2ccccc12)OCC` reads inactive: 3.65%; that for `COc1cc(C2NCCC3(OCCO3)C2(C)C)cc(OC)c1OC` (stereo not drawn), inactive: 6.8%. For `CCCOP(=S)(Nc1nc(N)cc(=O)[nH]1)OCCC` the value was inactive: 1.99%; for `O=C(CC(=O)c1ccccc1)O[C@H]1CN2CCC1CC2`, inactive: 13%. The result for `Cc1ccc(NCCc2c([N+](=O)[O-])cc([N+](=O)[O-])cc2[N+](=O)[O-])cc1` reads inactive: -1.23%; that for `Nc1cccc2c([As](=O)(O)O)cccc12`, inactive: 0.36%.

Regarding `NS(=O)(=O)Cc1ccc([As](=O)(O)O)cc1`, the inhibition was inactive: 12.3%. The result for `O=[As](O)(c1cccc(O)c1)c1cccc(O)c1` reads inactive: 8.67%. The result for `Cc1cccc(OCC(=O)OC2CN3CCC2CC3)c1` (stereo not drawn) reads inactive: 1.21%; that for `COc1cc(C(=O)NCC2(N3CCOCC3)CCCCC2)cc(Cl)c1OC(C)C`, inactive: 3.37%.

The record behind these values is PubChem BioAssay AID1422 (Emory University Molecular Libraries Screening Center, 2008).
